ChEMBL document CHEMBL1140479, “NO donors. Part 16: investigations on structure-activity relationships of organic mononitrates reveal 2-nitrooxyethylammoniumnitrate as a high potent vasodilator” (Bioorg Med Chem Lett, 2007)

Assay: Vasodilatory effect in pig pulmonary artery assessed as inhibition of PGF2-alpha-induced contraction

O=[N+]([O-])OCCBr
EC50: 377 nM
